Data taken from PMC10344917, “Affinity and cooperativity modulate ternary complex formation to drive targeted protein degradation” (Nature Communications, 2023).

Protein sequences, listed by entry. Tags and fused reporters are not part of them. Residues count along the entry.
UniProt P40337, 54-213 limits assumed: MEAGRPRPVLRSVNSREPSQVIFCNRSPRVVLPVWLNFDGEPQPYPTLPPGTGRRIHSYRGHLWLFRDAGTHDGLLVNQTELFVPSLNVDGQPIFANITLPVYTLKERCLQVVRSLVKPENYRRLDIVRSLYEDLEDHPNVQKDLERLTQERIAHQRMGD

Legend:
BRD4 [1] = biological target: T1, BRD4 (Homo sapiens, UniProt O60885); assay: BRD4 degradation, MSD assay, dose response; format: cell-based; design: AUC (area under the dose-response curve): unit not given beside the values
T1 construct: endogenous in cells; host or cells: A375
Method: A375 cells were treated with SMARCA2 or BRD4 degraders for 2 h (4 h for BRD4) and generated lysates. SMARCA2 or BRD4 protein was measured with a variation of a sandwich ELISA that was assembled from commercially available antibodies as well as reagents and instrumentation procured from Meso Scale Discovery (MSD). Degradation parameter, DC50, is not suitable for PROTACs that induce partial/incomplete DR curves at a fixed time point; maximum drop in target protein level (Dmax) >>0. Conversely, the area under the curve (AUC) can be calculated as a degradation activity parameter for any DR curve, and it encompasses both the degradation potency (i.e., DC50) and efficacy (i.e., Dmax) of PROTACs. […]
Plates were washed with 300 µL per well MSD wash buffer (MSD R61TX-1) between each step. Following the last incubation, plates were washed with MSD wash buffer then 150 µL of MSD read buffer (MSD R92TC-2) was added to each well. Plates were immediately read on a MSD plate reader (MSD Sector Imager 6000).
MSD electrochemiluminescence signals were subtracted by the average background signal from wells with lysis buffer alone. […] The area of each trapezoid was determined using the equation A = (1/2)(h)(b1 + b2), where h = 1 (distance between points), b1 = POC of the first point and b2 = POC of the second point. […]

[2] = biological target: T2, VBC / BRD4^BD1 ternary complex (Homo sapiens, UniProt O60885+P40337); assay: SPR ternary complex binding, VBC surface with preformed PROTAC/BRD4 BD1 complex
T2 construct: VHL (54-213), ElonginB (17-112) ElonginC (1-104); BRD4 (44-168); His6 (N, cleaved yes); made in house
Method: (§1) SPR experiments were performed on a Biacore 8 K or T200 instrument (Cytiva). […] The running buffer during immobilization was PBS with 0.005% P20. Either high-density (3000-4000 RU) or low-density (300-400 RU) VBC-functionalized surfaces were created, followed by equilibration in the running buffer for 3 h.
(§2) PROTACs (10 mM in 100% DMSO) were initially prepared at 200 nM in a running buffer (20 mM Tris pH 8.0, 250 mM NaCl, 1 mM TCEP, 0.01% P20, 0.2 mg/ml BSA) with a concentration of 2% DMSO. This solution was mixed at 1:1 ratio with a solution of 5 μM of the SMARCA2 or BRD4 bromodomain protein in the running buffer. […] For ternary experiments, solutions were injected sequentially in single-cycle kinetic format without regeneration (contact time 60 s, flow rate 80 μL/min, dissociation time 300 s) using a stabilization period of 60 s and syringe wash (50% DMSO) between injections onto a low-density VBC-functionalized surface.
(§3) Raw sensorgrams were processed by performing double reference subtraction, solvent correction, and analysis was done using Biacore Insight Evaluation Software. Kinetic analysis was performed by fitting data to a 1:1 Langmuir interaction model and a steady-state affinity model was used to evaluate equilibrium binding affinity.

[3] = biological target: T3, VBC / BRD4^BD2 ternary complex (Homo sapiens, UniProt O60885+P40337); assay: SPR ternary complex binding, VBC surface with preformed PROTAC/BRD4 BD2 complex
T3 construct: VHL (54-213), ElonginB (17-112) ElonginC (1-104); His6 (N); made in house
Method: as §1, §2, §3

BRD4 [4] = biological target: T1, BRD4; assay: BRD4 degradation time course in A375 cells (MSD); format: cell-based; settings: single concentration at or near maximal activity
Description: To measure the rate of protein degradation, we treated A375 cells with a single concentration of each PROTAC and measured the decrease in target abundance over time as shown in Figs. 4b and5b.
MSD electrochemiluminescence signals were subtracted by the average background signal from wells with lysis buffer alone. Normalized MSD values (POC) for individual compound treated wells were acquired by dividing background-subtracted assay signal by signal from vehicle control wells (cells + 0.1% DMSO) and multiplying by 100. This POC data was graphed using a nonlinear regression curve fit xy analysis and a log(inhibitor) vs response —variable slope (four parameter) model for dose response curves (Graphpad Prism 9, San Diego, CA, USA). To calculate area under the curve, all points on the curve were connected and vertical lines were drawn from each point down to y = 0, generating a series of trapezoids. The area of each trapezoid was determined using the equation A = (1/2)(h)(b1 + b2), where h = 1 (distance between points), b1 = POC of the first point and b2 = POC of the second point. The sum of all trapezoids provides an approximate area under the curve (AUC). For half-life (t1/2) determination in time course studies, a one-phase decay model was used for curve fitting and the time at which the curve crossed 50 POC was determined through interpolation (Graphpad Prism 9, San Diego, CA, USA).

Dmax (BRD4 [1]; A-375): 98%
AUC (area under the dose-response curve) (BRD4 [1]; BRD4 MSD assay, A375 cells, 4 h): 39
α (cooperativity, KLP/KLPT) ([2]; BRD4 (BD1)): 1.4
ternary complex binding affinity with BRD4^BD1 weaker compared to BRD4^BD2 ([2]; SPR, BD1 vs BD2): 10 fold
α (cooperativity, KLP/KLPT) [3]: 13.7
Initial Degradation Rate (BRD4 [4]): 1.95 %/min
SMILES: Cc1ncsc1-c1ccc(CNC(=O)[C@@H]2C[C@@H](O)CN2C(=O)[C@@H](NC(=O)COCCOCCOCCNC(=O)C[C@@H]2N=C(c3ccc(Cl)cc3)c3c(sc(C)c3C)-n3c(C)nnc32)C(C)(C)C)cc1 [Compound 17, (2S,4R)-1-((S)-2-(tert-Butyl)-17-((S)-4-(4-chlorophenyl)-2,3,9-trimethyl-6H-thieno[3,2-f][1,2,4]triazolo[4,3-a][1,4]diazepin-6-yl)-4,16-dioxo-6,9,12-trioxa-3,15-diazaheptadecan-1-oyl)-4-hydroxy-N-(4-(4-methylthiazol-5-yl)benzyl)pyrrolidine-2-carboxamide, reference compound]
